From ChEMBL document CHEMBL1149220, “1-(2-Naphthyl)-1H-pyrazole-5-carboxylamides as potent factor Xa inhibitors. Part 2: A survey of P4 motifs” (Bioorg Med Chem Lett, 2004)

Chains of the proteins cited; added tags and fusions are not shown. Residues count along the entry.
UniProt P00742, 41-179 limits assumed: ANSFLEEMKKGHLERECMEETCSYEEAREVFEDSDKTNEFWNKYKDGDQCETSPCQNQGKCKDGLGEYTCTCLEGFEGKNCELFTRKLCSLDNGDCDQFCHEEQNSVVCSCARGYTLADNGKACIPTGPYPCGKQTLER
UniProt P00742, 235-488 limits assumed: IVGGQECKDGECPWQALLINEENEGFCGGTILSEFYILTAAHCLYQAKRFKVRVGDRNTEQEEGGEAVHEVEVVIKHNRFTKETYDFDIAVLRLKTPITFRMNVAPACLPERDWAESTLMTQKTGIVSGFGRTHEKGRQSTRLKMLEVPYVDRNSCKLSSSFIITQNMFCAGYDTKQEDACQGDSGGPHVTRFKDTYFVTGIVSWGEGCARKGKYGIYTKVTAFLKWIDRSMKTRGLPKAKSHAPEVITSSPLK

Target: Coagulation factor X (Homo sapiens, UniProt P00742)
Assay: Inhibitory concentration against human Coagulation factor X

Q: With `Cc1cc(C(=O)Nc2ncc(-c3ccccc3S(N)(=O)=O)cn2)n(-c2cc3ccccc3cc2S(C)(=O)=O)n1` as the compound, how does the IC50 read?
A: 36 nM

Q: `Cc1cc(C(=O)Nc2ccc(-c3ccccc3S(C)(=O)=O)cc2)n(-c2ccc3cc(Cl)ccc3c2)n1` was tested. Which IC50 did it give?
A: 4 nM
